Consider one compound from paper PMC4269221 (Cell reports, 2014).

Protein sequences, listed by entry. Tags and fused reporters are not part of them.
UniProt Q00987, whole entry: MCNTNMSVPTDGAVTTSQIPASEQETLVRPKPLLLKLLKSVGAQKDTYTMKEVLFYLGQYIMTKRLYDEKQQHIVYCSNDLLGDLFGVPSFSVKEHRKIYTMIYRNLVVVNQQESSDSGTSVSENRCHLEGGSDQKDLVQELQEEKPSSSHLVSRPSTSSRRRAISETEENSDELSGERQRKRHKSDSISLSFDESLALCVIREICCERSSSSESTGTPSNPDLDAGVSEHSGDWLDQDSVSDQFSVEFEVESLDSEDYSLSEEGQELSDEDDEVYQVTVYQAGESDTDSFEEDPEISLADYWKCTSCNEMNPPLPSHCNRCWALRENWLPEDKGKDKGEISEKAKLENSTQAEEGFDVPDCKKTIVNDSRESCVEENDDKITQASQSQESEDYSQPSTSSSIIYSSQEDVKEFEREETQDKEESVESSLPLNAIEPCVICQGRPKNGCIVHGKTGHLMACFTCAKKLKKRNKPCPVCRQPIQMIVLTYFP

Structures are written as SMILES. Entries after “also recorded” stand apart in the source; their conditions may differ.

For test [1], the target named is p53-Mdm2 complexes in Saos-2 p53-Mdm2 ReBiL cells (Homo sapiens, UniProt Q00987). Kind of test: Real-time BiLC. The format is cell-based.
The test system of the next test is Mdm2. The conditions noted are these: ref Graves et al., 2012; cited from earlier work.

As for `COc1ccc(C2=N[C@@H](c3ccc(Cl)cc3)[C@@H](c3ccc(Cl)cc3)N2C(=O)N2CCNC(=O)C2)c(OC(C)C)c1` [Nutlin-3a], the “p53-Mdm2 BiLC signal (newly synthesized complexes)” value in test [1] (doxycycline 500 ng/ml and compound added at Time = 0, 10 μM, 24 hr, 37 °C) was “reduced”. In addition, the “time to reach full p53-Mdm2 inhibition” value in test [1] (pre-induced Saos-2 p53-Mdm2 ReBiL cells, 10% FBS, 37 °C (Figure 4A)) was 20 min. Besides, in test [1] (pre-induced cells, doxycycline withdrawal, 10% FBS media, 37 °C), the “disruption of preformed p53-Mdm2 complexes in living cells” value is reported as “dose dependently reduced; also recorded: disrupts”. Further, the Mdm2 binding affinity in the test with Mdm2 is 18.7 nM.
